Data from patent US7919532B2, “Hydroxylated aromatic compounds” (Revotar Biopharmaceuticals AG, priority 2005, dated 2011).

By UniProt entry, the sequences of proteins in these tests, tags left out. Where a name states a change or a piece, a line headed by the entry shows the natural chain unless it says otherwise. Chains listed by the source or under a name are the forms on record and can include a tag or linker.
UniProt P16581, with tags, fused parts or gaps limits assumed: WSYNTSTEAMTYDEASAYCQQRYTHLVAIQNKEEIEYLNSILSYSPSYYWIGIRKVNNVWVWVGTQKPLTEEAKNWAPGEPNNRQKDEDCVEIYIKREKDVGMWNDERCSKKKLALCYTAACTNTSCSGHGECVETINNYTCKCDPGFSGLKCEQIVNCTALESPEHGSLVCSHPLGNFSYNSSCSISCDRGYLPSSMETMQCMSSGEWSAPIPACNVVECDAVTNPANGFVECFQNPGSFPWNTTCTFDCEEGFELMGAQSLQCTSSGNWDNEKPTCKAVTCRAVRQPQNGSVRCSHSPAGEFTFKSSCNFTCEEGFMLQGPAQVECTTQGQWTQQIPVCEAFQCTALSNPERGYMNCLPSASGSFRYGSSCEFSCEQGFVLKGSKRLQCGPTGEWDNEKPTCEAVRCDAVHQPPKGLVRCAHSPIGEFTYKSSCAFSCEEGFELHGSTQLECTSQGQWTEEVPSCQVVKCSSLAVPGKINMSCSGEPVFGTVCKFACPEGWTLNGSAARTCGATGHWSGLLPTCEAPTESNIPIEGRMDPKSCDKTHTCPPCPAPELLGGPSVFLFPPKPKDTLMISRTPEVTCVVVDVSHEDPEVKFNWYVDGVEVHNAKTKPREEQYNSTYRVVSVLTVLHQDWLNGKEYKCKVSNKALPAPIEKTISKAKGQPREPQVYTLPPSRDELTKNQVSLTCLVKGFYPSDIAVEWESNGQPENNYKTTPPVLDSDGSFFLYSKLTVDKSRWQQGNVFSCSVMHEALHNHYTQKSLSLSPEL

Molecular target: human E-Selectin-IgG-chimera (Homo sapiens, UniProt P16581)
Assay: Sialyl Lewis X Tyrosine Sulfate Assay (sLex TSA), E-selectin
Parameters: IgG (chimera partner)
Details: inhibition of binding of sLex-tyrosine sulfate polyacrylamide ligand complex to selectin chimera
Description: Compounds of the present invention are assayed on a molecular level for their ability to inhibit the binding of P-, L-, or E-selectin chimeric molecules to sLe^x and tyrosinesulfate residues linked to a polymeric matrix as a PSGL-1 substitute. Selected IC50-values are determined.
Microtiter plates are coated overnight in carbonate buffer pH9.6 with goat anti human Fc mAB (10 μg/ml). After washing in assay buffer (25 mM 4-(2-hydroxyethyl)-1-piperazineethanesulfonic acid (HEPES), 150 mM NaCl, 1 mM CaCl2 pH7.4) and blocking (3% bovine serum albumin (BSA) in assay buffer) plates are incubated for 2 h at 37° C. with human P-Selectin-IgG-chimera (0.61 nM respectively 150 ng/mL) or human L-Selectin-IgG-chimera (0.61 nM respectively 89 ng/mL) or human E-Selectin-IgG-chimera (0.61 nM respectively 131 ng/mL). 5 μl of sLe^x-tyrosine sulfate polyacrylamide (1 mg/ml) carrying 15% sLe^x, 10% Tyrosine-sulfate and 5% biotin is complexed with 20 μl Streptavidin-Peroxidase solution (1 mg/ml) and 25 μl assay buffer without CaCl2. For use in the assay, the ligand complex is diluted 1:10000 in assay buffer and further diluted 1:1 with varying amounts of compounds in assay buffer incl. 2% DMSO. […] Bound sLe^x-Tyrosine sulfate ligand complex is determined by measuring optical density at 450 nm vs. 620 nm in a Fusion alpha-FP reader (sold from Packard Bioscience, Dreieich, Germany).

O=C(O)Cc1cccc(-c2cc(CCCCCCc3ccc(O[C@H]4O[C@H](CO)[C@@H](O)[C@H](O)[C@@H]4O)c(-c4cccc(CC(=O)O)c4)c3)ccc2O[C@H]2O[C@H](CO)[C@@H](O)[C@H](O)[C@@H]2O)c1 [Bimosiamose, bimosiamose, reference compound]
IC50: > 500 µM
